Patent US10214507B2, “Carbazole-containing amides, carbamates, and ureas as cryptochrome modulators” (Reset Therapeutics, Inc., priority 2014, dated 2019)
Read-outs that look alike come from different tables or passages of the source.

Tests used:
[1] = Pharmacokinetic analysis in ICR mice (plasma and liver, LC/MS/MS); type: in vivo, mouse; details: 50 mg/kg P.O.; for Cmax / Tmax / half-life / MRT last: male, ICR, po; for Cmax: 50 mg/kg; for half-life: read-out: Elimination T1/2 (converted); for MRT last: read-out: MRT (0-last, hr); for AUC (0-last; ng · hr/mL): head printed MRT, apparently AUC 0-last
Experimental: Male ICR mice (weighing 30-40 g, Charles River Laboratories) were used for the experiment with n=3 mice for each experimental group (27 mice total for the study). […] Blood and liver tissue were collected at the following time points after administration: 15, 30, 60, 90 minutes, 3, 6, 12 and 24 hours. A control group of animals (TO) was also sampled. Animals were euthanized with CO2 and the blood collected from the heart using cardiac puncture, transferred to an EDTA tube, and then centrifuged at 5400 rpm for 5 minutes at 4° C. The resultant plasma was frozen using dry ice and then stored at −80° C. until ready for assay. Liver tissue was removed from each animal, 0.5 g was collected in an eppendorff, frozen and submitted for pharmacokinetic measurement. […] Raw data was analyzed using WinNonLin for PK parameters (Cmax, Tmax, elimination t^1/2, MRT (mean residence time), AUC (area under the curve)−(0-last and % extrapolated).

[2] = tested on: db/db mouse model of type II diabetes; details: db/db mice
[3] = in vivo; details: male, db/db, mouse, liver, oral
[4] = tested on: core clock gene mRNAs in livers of ICR mice; test: Four day study, liver clock gene mRNA by RT-qPCR, ICR mice; type: in vivo, mouse; details: 50 mg/kg PO BID 4 days
Experimental: Male ICR mice (weighing 30-35 g), obtained from Charles River Laboratories (Hollister, CA), were used for the experiment following at least 3 days of acclimation. Mice were dosed with vehicle (WFI or 10% Kolliphor) or compound (50 mg/kg, dose volume 5 mL/kg, PO) for 4 days BID (twice a day), beginning in the afternoon of the first day. The last dose of compound or vehicle was administered on the morning of harvest. On the day of harvest (6 hours following the final dose), mice were euthanized by CO2 asphyxiation and 50 mg of liver tissue was excised and placed in a tube containing 500 μl of RNA later.
E.Z.N.A.® HP Total RNA Isolation Kits (R6812-01 and the protocol described in the Manual, Revised 2010) were utilized to prepare and isolate RNA from the liver samples. To prepare the RNA samples, 10-30 mg of sample was removed from RNA-Later and placed in a 1.5 ml microfuge tube. GTC lysis buffer (700 μl) was added to the tissue, which was homogenized with a rotor-stator homogenizer (e.g. Tissue-Tearor, Model #985370 BioSpec Products with 4.5 mm probe, Cat. #985370-04), and then centrifuged at full speed (>13,000×g) for 5 minutes. The cleared supernatant was transferred by pipetting to a DNA Clearance Column Pre-inserted in a 2 mL Collection Tube. The assembled column was centrifuged at 13,000×g for 1 minute, and the flow-through was saved. An equal volume (700 μl) of 70% ethanol was added to the lysate and mixed. The sample was then applied to a HiBind RNA spin column placed into a 2 ml collection tube, which was centrifuged at 10,000×g for 60 seconds at room temperature. […]
RediPlate 96 RiboGreen RNA Quantification Kit (Invitrogen) RediPlate standard curve was prepared by transferring 20 μl reconstituted RNA standard to a RediPlate well reconstituted in 180 μl RediPlate TE buffer. […] After transferring 5 μl to RediPlate well reconstituted in 195 μl TE buffer and incubating 10 min. at RT, Fluorescence Intensity of wells with standards and samples were read in a Tecan M200 with Excitation set at 480 nm and Emission set at 520 nm with the gain set to −70%. […]

[5] = tested on: C57/Bl6J DIO mice; test: 7 day dosing in diet-induced obesity (DIO) mouse model; type: in vivo; details: positive control 30 mg/kg PO 7 days
From the text: (§1) Male C57/Bl6J DIO mice were obtained from The Jackson Laboratory (Sacramento, Calif.). […] Animals were accustomed to these conditions for at least 2 weeks before experimentation and used at approximately 24 weeks of age.
(§2) Significance was accepted when p<0.05.

[6] = tested on: C57/Bl6J DIO mice; test: Increasing dosages of Compound 72 for 7 days in diet-induced obesity mouse model; type: in vivo; details: positive control 30 mg/kg QD PO 7 days
From the text: as §1, §2
Male C57/Bl6J DIO mice were obtained from The Jackson Laboratory (Sacramento, Calif.). […] Animals were accustomed to these conditions for at least 2 weeks before experimentation and used at approximately 26 weeks of age.

O=C1C(F)CCN1CC(O)Cn1c2ccc(F)cc2c2cc(F)ccc21 (centres unmarked) [Compound 9, 1-(3-(3,6-difluoro-9H-carbazol-9-yl)-2-hydroxypropyl)-3-fluoropyrrolidin-2-one]
Cmax ([1]; mouse, liver, mouse liver, read-out: Cmax): 33000 ng/mL
Cmax ([1]; mouse, liver, mouse, unbound, read-out: Cmax UB (liver)): 990 ng/mL
Cmax ([1]; mouse, plasma, mouse plasma, read-out: Cmax): 893 ng/mL
Cmax ([1]; mouse, plasma, mouse, read-out: Cmax (plasma)): 893 ng/mL
Cmax ([1]; mouse, plasma, mouse, unbound, read-out: Cmax UB (plasma)): 26.8 ng/mL
Tmax ([1]; mouse liver): 0.25 h
half-life ([1]; mouse liver): 3.12 h
MRT last ([1]; mouse liver): 1.5 h
Tmax ([1]; mouse plasma): 0.25 h
half-life ([1]; mouse plasma): 3.18 h
MRT last ([1]; mouse plasma): 3.92 h
% AUC extrapolated ([1]; mouse liver): 0.142%
AUC (total; ng · hr/mL) ([1]; mouse liver): 26800 ng·h/mL
AUC (0-last; ng · hr/mL) ([1]; mouse liver): 26800 ng·h/mL
% AUC extrapolated ([1]; mouse plasma): 0.564%
AUC (total; ng · hr/mL) ([1]; mouse plasma): 1930 ng·h/mL
AUC (0-last; ng · hr/mL) ([1]; mouse plasma): 1920 ng·h/mL
Cmax (liver) ([1]; mouse): 33000 ng/mL
Total Liver AUC (0-last) ([1]; mouse): 26800
Unbound Liver AUC (0-last) ([1]; mouse): 804
Unbound Plasma AUC (0-last) ([1]; mouse): 57
liver exposure below the Per2 EC50 value ([2]; 30 mg/kg): around 1.6 fold
HOMA-IR ([2]; 30 mg/kg QD PO 7 days): 289.9+/−24.40 units
glucose AUC from OGTT ([2]; 30 mg/kg QD PO 7 days): 44442+/−3895
plasma insulin at t=0 ([2]; 30 mg/kg QD PO 7 days): 10.94 ± 1.62 ng/mL
plasma insulin at t=2 hr ([2]; 30 mg/kg QD PO 7 days): 5.76 ± 0.11 ng/mL
reduction of glucose AUC from vehicle control ([2]; 30 mg/kg QD PO 7 days): 21%
liver exposure higher than the Per2 EC50 value ([2]; 100 mg/kg): 2.2 fold
HOMA-IR ([2]; 100 mg/kg QD PO 7 days): 175.3+/−27.52 units
fasting blood glucose ([2]; 100 mg/kg QD PO 7 days): 403.1 ± 39.73 mg/dL
glucose AUC from OGTT ([2]; 100 mg/kg QD PO 7 days): 33643+/−4822
plasma insulin at t=0 ([2]; 100 mg/kg QD PO 7 days): 7.71 ± 1.26 ng/mL
plasma insulin at t=2 hr ([2]; 100 mg/kg QD PO 7 days): 3.70 ± 0.29 ng/mL
reduction of HOMA-IR compared to vehicle control ([2]; 100 mg/kg QD PO 7 days): 60%
reduction of glucose AUC from vehicle control ([2]; 100 mg/kg QD PO 7 days): 40%
liver exposure higher than the Per2 EC50 value ([2]; 300 mg/kg): 15.9 fold
HOMA-IR ([2]; 300 mg/kg QD PO 7 days): 301.4+/−52.66 units
glucose AUC from OGTT ([2]; 300 mg/kg QD PO 7 days): 33650+/−4688
plasma insulin at t=0 ([2]; 300 mg/kg QD PO 7 days): 10.54 ± 1.6 ng/mL
plasma insulin at t=2 hr ([2]; 300 mg/kg QD PO 7 days): 4.01 ± 0.44 ng/mL
reduction of glucose AUC from vehicle control ([2]; 300 mg/kg QD PO 7 days): 40%
concentration at 8 h ([3]; 30 mg/kg): 190 nM
concentration at 8 h ([3]; 100 mg/kg): 670 nM
concentration at 8 h ([3]; 300 mg/kg): 4770 nM
Cry2 transcripts ([4]; ICR mice liver): decrease
increase in Bmal1 mRNA at ZT6 ([4]; ICR mice liver): 4 fold
liver Per2 expression ([4]; ICR mice, ZT6): suppression

CN(CCOc1ccc(CC2SC(=O)NC2=O)cc1)c1ccccn1 (centres unmarked) [Rosiglitazone, reference compound]
glucose AUC [5]: 11500+/−1104 units
glucose AUC ([2]; positive control 30 mg/kg QD PO 7 days): 11502+/−2118 units
glucose AUC [6]: 9858+/−1281 units
